Test [1] deals with T1, Melanocortin receptor 3 (Mus musculus, UniProt P33033). The format is cell-based, HEK293.
Test [2] has as its target T2, Melanocyte-stimulating hormone receptor (Mus musculus, UniProt Q01727). In words: Binding affinity to mouse MC1R expressed in HEK293 cells assessed as inhibition constant by schild plot analysis. The format is cell-based.
Test [3] concerns the target T3, Melanocortin receptor 4 (Mus musculus, UniProt P56450). The format is cell-based, HEK293.
Test [4] addresses T1, Melanocortin receptor 3. In words: Agonist activity against mouse MC3R expressed in HEK293 cells assessed as increase in cAMP level incubated for 2 hrs by AlphaScreen assay. The format is functional, cell-based.
Test [5] has as its target T3, Melanocortin receptor 4. Put plainly: Agonist activity against mouse MC4R expressed in HEK293 cells assessed as increase in cAMP level incubated for 2 hrs by AlphaScreen assay. The format is functional, cell-based. On the technique in general: Changes in cAMP serve as a functional read-out for many G protein-coupled receptors.
In test [6] the target is T4, Melanocortin receptor 5 (Mus musculus, UniProt P41149). In words: Agonist activity against mouse MC5R expressed in HEK293 cells assessed as increase in cAMP level incubated for 2 hrs by AlphaScreen assay. The format is functional, cell-based.
The target of test [7] is T4, Melanocortin receptor 5. Put plainly: Binding affinity to mouse MC5R expressed in HEK293 cells assessed as inhibition constant by schild plot analysis. The format is cell-based.
Test [8] deals with T2, Melanocyte-stimulating hormone receptor. Put plainly: Agonist activity against mouse MC1R expressed in HEK293 cells assessed as increase in cAMP level incubated for 2 hrs by AlphaScreen assay. The format is functional, cell-based.
For test [9] the target is unchanged. In words: Partial agonist activity against mouse MC1R expressed in HEK293 cells assessed as increase in cAMP level incubated for 2 hrs by AlphaScreen assay. The format is functional, cell-based.

By UniProt entry, the sequences of proteins in these tests, tags left out. Where a name states a change or a piece, a line headed by the entry shows the natural chain unless it says otherwise.
UniProt P33033: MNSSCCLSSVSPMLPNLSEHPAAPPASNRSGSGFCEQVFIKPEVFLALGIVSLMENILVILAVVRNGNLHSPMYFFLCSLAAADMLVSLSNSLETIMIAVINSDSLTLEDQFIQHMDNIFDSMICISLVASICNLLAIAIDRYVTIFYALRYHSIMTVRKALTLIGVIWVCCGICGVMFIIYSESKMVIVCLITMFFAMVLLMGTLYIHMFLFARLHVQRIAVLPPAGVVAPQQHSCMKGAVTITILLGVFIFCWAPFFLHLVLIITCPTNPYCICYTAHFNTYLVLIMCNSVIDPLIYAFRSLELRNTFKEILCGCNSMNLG
UniProt Q01727: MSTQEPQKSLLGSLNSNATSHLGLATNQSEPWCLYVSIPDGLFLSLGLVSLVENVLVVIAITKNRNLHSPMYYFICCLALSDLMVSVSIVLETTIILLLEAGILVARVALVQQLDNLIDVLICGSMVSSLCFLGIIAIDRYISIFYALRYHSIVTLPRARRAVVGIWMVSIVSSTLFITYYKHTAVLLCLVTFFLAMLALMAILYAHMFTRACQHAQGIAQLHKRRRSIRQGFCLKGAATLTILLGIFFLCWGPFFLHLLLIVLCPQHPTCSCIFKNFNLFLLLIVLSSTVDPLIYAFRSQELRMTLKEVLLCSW
UniProt P56450, whole entry: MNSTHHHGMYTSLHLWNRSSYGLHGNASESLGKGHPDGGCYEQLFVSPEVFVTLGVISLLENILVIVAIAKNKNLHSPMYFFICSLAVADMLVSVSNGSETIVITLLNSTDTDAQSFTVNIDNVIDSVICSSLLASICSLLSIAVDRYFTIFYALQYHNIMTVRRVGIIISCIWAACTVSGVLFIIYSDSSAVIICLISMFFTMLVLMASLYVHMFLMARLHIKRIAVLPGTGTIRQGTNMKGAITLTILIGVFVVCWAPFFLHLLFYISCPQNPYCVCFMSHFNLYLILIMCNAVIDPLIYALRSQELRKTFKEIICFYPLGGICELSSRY
UniProt P41149: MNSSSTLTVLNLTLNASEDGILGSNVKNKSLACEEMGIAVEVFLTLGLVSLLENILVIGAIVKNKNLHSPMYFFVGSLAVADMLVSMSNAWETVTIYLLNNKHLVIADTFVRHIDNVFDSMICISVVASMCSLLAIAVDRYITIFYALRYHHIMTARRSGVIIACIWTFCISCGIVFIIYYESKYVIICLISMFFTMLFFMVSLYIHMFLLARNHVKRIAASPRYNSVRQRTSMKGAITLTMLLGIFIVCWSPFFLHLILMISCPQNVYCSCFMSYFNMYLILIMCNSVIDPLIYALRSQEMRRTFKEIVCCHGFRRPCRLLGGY

As usually defined, the Ki is a measure of affinity in units of concentration, obtained from inhibition or displacement. Broadly, the EC50 is the midpoint of the concentration-response curve. Take `CC(=O)N[C@H](Cc1ccc(I)cc1)C(=O)N[C@@H](CCCNC(N)=O)C(=O)N[C@@H](Cc1ccc2ccccc2c1)C(=O)N[C@@H](CCCNC(=N)N)C(N)=O`: the figures for the Ki (at Melanocortin receptor 3 [1]; in [2]; on Melanocortin receptor 4 [3]) were 1600 nM, 630 nM and 320 nM, respectively. The EC50 at Melanocortin receptor 3 [4] was greater than 100000 nM.

On to `CC(=O)N[C@H](Cc1ccc(I)cc1)C(=O)N[C@@H](CCCNC(=N)N)C(=O)N[C@@H](Cc1ccc2ccccc2c1)C(=O)N[C@@H](CCCCNC(=N)N)C(N)=O`, for which the Ki at Melanocortin receptor 3 [1] is 20 nM; in test [2], 50 nM; on Melanocortin receptor 4 [3] it was 6.3 nM.

`CC(=O)N[C@H](Cc1ccc(I)cc1)C(=O)N[C@@H](CCCCNC(=N)N)C(=O)N[C@@H](Cc1ccc2ccccc2c1)C(=O)N[C@@H](CCCNC(=N)N)C(N)=O`: the Ki worked out at 40 nM on Melanocortin receptor 3 [1], 320 nM in test [2], 200 nM on Melanocortin receptor 5 [7] and 1.3 nM at Melanocortin receptor 4 [3]. Besides, the EC50 at Melanocortin receptor 4 [5], on Melanocortin receptor 5 [6] and on Melanocortin receptor 3 [4] was greater than 100000 nM in each case.

In the case of `CC(=O)N[C@H](Cc1ccc(I)cc1)C(=O)N[C@H](CCCNC(=N)N)C(=O)N[C@@H](Cc1ccc2ccccc2c1)C(=O)N[C@@H](CCCNC(=N)N)C(N)=O`, the EC50 at Melanocortin receptor 4 [5], at Melanocortin receptor 5 [6] and at Melanocortin receptor 3 [4] was greater than 100000 nM in each case.

In the case of `CC(=O)N[C@H](Cc1ccc(I)cc1)C(=O)N[C@@H](CCCNC(=N)N)C(=O)N[C@@H](Cc1ccc2ccccc2c1)C(=O)N[C@@H](CN)C(N)=O`, the inhibition constant (Ki) at Melanocortin receptor 3 [1] was determined as 50 nM; in [2], 250 nM; at Melanocortin receptor 5 [7], 500 nM; at Melanocortin receptor 4 [3], 8 nM.

`CC(=O)N[C@H](Cc1ccc(I)cc1)C(=O)N[C@@H](CCN)C(=O)N[C@@H](Cc1ccc2ccccc2c1)C(=O)N[C@@H](CCCNC(=N)N)C(N)=O`: the EC50 (in [8]; at Melanocortin receptor 4 [5]; on Melanocortin receptor 5 [6]; on Melanocortin receptor 3 [4]) was greater than 100000 nM each time. Also, the Ki turned out to be 63 nM in [2] and 250 nM at Melanocortin receptor 4 [3].

As to `CC(=O)N[C@H](Cc1ccc(I)cc1)C(=O)N[C@@H](CCCN)C(=O)N[C@@H](Cc1ccc2ccccc2c1)C(=O)N[C@@H](CCCNC(=N)N)C(N)=O`, in test [2], the Ki is 200 nM.

On to `CC(=O)N[C@H](Cc1ccc(I)cc1)C(=O)N[C@@H](CCCNC(=N)N)C(=O)N[C@@H](Cc1ccc2ccccc2c1)C(=O)N[C@@H](CCCNC(N)=O)C(N)=O`, for which the Ki at Melanocortin receptor 3 [1] came to 160 nM; in test [2], 1300 nM; on Melanocortin receptor 5 [7], 800 nM; on Melanocortin receptor 4 [3], 3.2 nM.

Turning to `CC(=O)N[C@H](Cc1ccc(I)cc1)C(=O)N[C@@H](CCCNC(=N)N)C(=O)N[C@@H](Cc1ccc2ccccc2c1)C(=O)N[C@@H](CCCN)C(N)=O`, the Ki was determined as 40 nM on Melanocortin receptor 3 [1], 400 nM in [2], 400 nM at Melanocortin receptor 5 [7] and 1.6 nM at Melanocortin receptor 4 [3]. In addition, the EC50 was greater than 100000 nM at Melanocortin receptor 4 [5], greater than 100000 nM on Melanocortin receptor 5 [6], 3000 nM in test [9] and greater than 100000 nM at Melanocortin receptor 3 [4].

Take `CC(=O)N[C@H](Cc1ccc(I)cc1)C(=O)N[C@@H](CCCNC(=N)N)C(=O)N[C@@H](Cc1ccc2ccccc2c1)C(=O)N[C@H](CCCNC(=N)N)C(N)=O`: the EC50 (in test [8]; at Melanocortin receptor 4 [5]; on Melanocortin receptor 5 [6]; at Melanocortin receptor 3 [4]) was greater than 100000 nM each time.

On to `CC(=O)N[C@H](Cc1ccc(I)cc1)C(=O)N[C@@H](CCCCN)C(=O)N[C@@H](Cc1ccc2ccccc2c1)C(=O)N[C@@H](CCCNC(=N)N)C(N)=O`, for which the Ki in test [2] came out at 320 nM; on Melanocortin receptor 4 [3] it was 8 nM. In addition, the half-maximal effective concentration (EC50) at Melanocortin receptor 5 [6] and on Melanocortin receptor 3 [4] was greater than 100000 nM throughout.

In the case of `CC(=O)N[C@H](Cc1ccc(I)cc1)C(=O)N[C@@H](CCCNC(=N)N)C(=O)N[C@@H](Cc1ccc2ccccc2c1)C(=O)N[C@@H](CCN)C(N)=O`, the Ki at Melanocortin receptor 3 [1] was found to be 16 nM; in test [2], 320 nM; on Melanocortin receptor 5 [7], 200 nM; at Melanocortin receptor 4 [3] it was 1.6 nM.

Turning to `CC(=O)N[C@H](Cc1ccc(I)cc1)C(=O)N[C@@H](CCCNC(=N)N)C(=O)N[C@@H](Cc1ccc2ccccc2c1)C(=O)N[C@@H](Cc1c[nH]cn1)C(N)=O`, the Ki in test [2] amounted to 250 nM; at Melanocortin receptor 5 [7], 1300 nM; on Melanocortin receptor 4 [3], 16 nM.

At Melanocortin receptor 4 [3], `CC(=O)N[C@H](Cc1ccc(I)cc1)C(=O)N[C@@H](CN)C(=O)N[C@@H](Cc1ccc2ccccc2c1)C(=O)N[C@@H](CCCNC(=N)N)C(N)=O` registered a Ki of 1600 nM.

For the molecule `CC(=O)N[C@H](Cc1ccc(I)cc1)C(=O)N[C@@H](CCCNC(=N)N)C(=O)N[C@@H](Cc1ccc2ccccc2c1)C(=O)N[C@@H](CCCCN)C(N)=O`, the EC50 on Melanocortin receptor 4 [5], at Melanocortin receptor 5 [6] and on Melanocortin receptor 3 [4] was greater than 100000 nM throughout.

As to `CC(=O)N[C@H](Cc1ccc(I)cc1)C(=O)N[C@H](CCCCN)C(=O)N[C@@H](Cc1ccc2ccccc2c1)C(=O)N[C@@H](CCCNC(=N)N)C(N)=O`, in test [2], the Ki was 630 nM. Also, the EC50 at Melanocortin receptor 5 [6] and on Melanocortin receptor 3 [4] was greater than 100000 nM each time.

`CC(=O)N[C@H](Cc1ccc(I)cc1)C(=O)N[C@@H](Cc1c[nH]cn1)C(=O)N[C@@H](Cc1ccc2ccccc2c1)C(=O)N[C@@H](CCCNC(=N)N)C(N)=O`: the Ki on Melanocortin receptor 3 [1] worked out at 2000 nM; in [2] it was 630 nM. For the same molecule, the EC50 on Melanocortin receptor 3 [4] was greater than 100000 nM.

For the origin of these results see ChEMBL document CHEMBL5352507, “Discovery of a Pan-Melanocortin Receptor Antagonist [Ac-DPhe(pI)-Arg-Nal(2')-Orn-NH2] at the MC1R, MC3R, MC4R, and MC5R that Mediates an Increased Feeding Response in Mice and a 40-Fold Selective MC1R Antagonist [Ac-DPhe(pI)-DArg-Nal(2')-Arg-NH2]” (J Med Chem, 2023).
